Data on one molecule can be found in patent EP0975604B1, “PYRIDAZINONES AS INHIBITORS OF CYCLOOXYGENASE-2” (MERCK FROSST CANADA & CO., priority 1997, dated 1998).

Amino acid sequences for entries named in this document (tags omitted). Residues count along the entry.
UniProt P23219, 24-599: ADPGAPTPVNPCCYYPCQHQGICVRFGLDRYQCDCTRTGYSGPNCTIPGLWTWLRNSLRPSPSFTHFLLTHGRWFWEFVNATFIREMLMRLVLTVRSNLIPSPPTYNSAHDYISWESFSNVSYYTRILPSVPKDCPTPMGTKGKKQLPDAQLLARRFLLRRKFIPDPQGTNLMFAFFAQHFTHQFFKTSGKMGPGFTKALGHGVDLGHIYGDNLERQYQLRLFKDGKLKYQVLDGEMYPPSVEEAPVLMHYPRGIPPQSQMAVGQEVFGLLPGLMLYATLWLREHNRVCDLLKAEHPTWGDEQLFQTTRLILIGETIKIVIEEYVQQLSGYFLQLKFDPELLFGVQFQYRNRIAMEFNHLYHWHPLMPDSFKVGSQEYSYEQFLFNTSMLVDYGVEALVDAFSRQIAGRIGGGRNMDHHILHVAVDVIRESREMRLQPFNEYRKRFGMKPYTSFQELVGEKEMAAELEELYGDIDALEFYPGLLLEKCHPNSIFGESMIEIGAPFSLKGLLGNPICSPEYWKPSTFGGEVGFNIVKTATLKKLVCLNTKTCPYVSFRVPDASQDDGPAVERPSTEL

For orientation: IC50 means the concentration at which inhibition is half-maximal.

The assay has as its target COX-1 (Homo sapiens, UniProt P23219). In words: Assay of COX-1 activity from U937 cell microsomes. Set-up: endogenous in cells; host or cells: U937 cells, 100,000 x g microsomal pellet. Particulars: PGE2, read-out: COX-1 (IC50 µM) U-937. In kind it is biochemical. The protocol: U 937 cells are pelleted by centrifugation at 500 x g for 5 min and washed once with phosphate-buffered saline and repelleted. Cells are resuspended in homogenization buffer consisting of 0.1 M Tris-HCl, pH 7.4, 10 mM EDTA, 2 µg/ml leupeptin, 2 µg/ml soybean trypsin inhibitor, 2 µg/ml aprotinin and 1 mM phenyl methyl sulfonyl fluoride. The cell suspension is sonicated 4 times for 10 sec and is centrifuged at 10,000 x g for 10 min at 4° C. The supernatant is centrifuged at 100,000 x g for 1 hr at 4 °C. The 100,000 x g microsomal pellet is resuspended in 0.1 M Tris-HCl, pH 7.4, 10 mM EDTA to approximately 7 mg protein/ml and stored at -80° C.
Assays are performed in duplicate in a final volume of 250 µl. Initially, 5 µl of DMSO vehicle or drug in DMSO are added to 20 µl of 0.1 M Tris-HCl buffer, pH 7.4 containing 10 mM EDTA in wells of a 96-deepwell polypropylene titre plate. […] Samples are neutralized with 25 µl of 1 N NaOH prior to quantitation of PGE2 content by radioimmunoassay (Dupont-NEN or Amersham assay kits). […]
In the assay, inhibition is determined by measuring the amount of prostaglandin E2 (PGE2) synthesized in the presence of arachidonic acid, cyclooxygenase-1 or cyclooxygenase-2 and a putative inhibitor.

SMILES strings stand for the structures.

As to `Cn1ncc(-c2ccc(S(C)(=O)=O)cc2)c(-c2ccccc2)c1=O` [Example 2, 2-Methyl-5-(4-methylsulfonyl)phenyl-4-phenyl-2H-pyridazin-3-one], the IC50 was greater than 10 µM.
